Patent US12064444B2, “Application of tannic acid in preparation of medicament against respiratory viruses” (priority 2020, dated 2024)

System: canine kidney epithelial cells (MDCK cells)
Test: Toxicity to canine kidney epithelial cells (MDCK), cytopathic changes
Description: 2. […] The maximum non-toxic concentration (TC0) of the medicament was taken as the minimum dilution times of the medicament without cytopathic changes, and the median toxic concentration (TC50) of the medicament was calculated by the Reed-Muench formula. 3. Experimental results
• (1) Medicaments: same as Embodiment 5; • (2) Other experimental materials were the same as those in Embodiment 3. 2. Experimental procedure: refer to Embodiment 3. 3. Experimental results

SMILES: NC(=O)c1ncn([C@@H]2O[C@H](CO)[C@@H](O)[C@H]2O)n1 [Ribavirin]
- TC0 (compositions, mass ratio 1:1): 160.00 µg/mL
- TC0 (maximum non-toxic concentration) (cytopathic changes): 655.17 µM
